Only a part is listed here, and it is no random draw. Some salts and complexes are drawn in separate pieces, as the source files them; their charges need not balance. Activity calls are given as the source filed them.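 Rule for the calls: active = inhibition above about 50% at the single test dose (limit read from the data); inactive = the rest.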

The chains behind the UniProt entries cited, without tags or fusion partners. Residues count along the entry.
UniProt Q9BQF6, 706-1050 limits assumed: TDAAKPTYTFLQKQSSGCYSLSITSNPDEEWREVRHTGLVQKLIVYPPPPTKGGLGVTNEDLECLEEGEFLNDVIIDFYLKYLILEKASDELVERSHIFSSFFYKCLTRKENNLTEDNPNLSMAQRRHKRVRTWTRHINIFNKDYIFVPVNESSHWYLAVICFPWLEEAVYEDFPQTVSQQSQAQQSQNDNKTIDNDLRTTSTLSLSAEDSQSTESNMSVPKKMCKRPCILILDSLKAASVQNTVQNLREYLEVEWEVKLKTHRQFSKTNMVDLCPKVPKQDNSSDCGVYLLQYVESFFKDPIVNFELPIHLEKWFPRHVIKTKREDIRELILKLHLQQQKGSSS

The target in the test is Sentrin-specific protease 7 (Homo sapiens) (UniProt Q9BQF6). As to the kind of experiment: blockers of human SENP7 peptidase activity – biochemical, luminescence, uHTS, primary screen (AID 434973).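 Note: plate controls were DMSO with enzyme for no effect and no enzyme buffer wells for full effect.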 As to conditions: recombinant SENP7, Z-RLRGG-aminoluciferin luminescence, 40 min; at 5 µM; hits give high values.
On to `COc1ccccc1OP(C)(=O)Nc1ccc(C)c(C)c1` (stereo not drawn), for which the inhibition is inactive: -1.5%. With `COc1ccc(OP(C)(=O)Nc2ccccc2Br)cc1` (stereo not drawn), the inhibition is inactive: -1.89%. The value for `Cc1cc(C)cc(OP(C)(=O)Nc2cccc(C(F)(F)F)c2)c1` (stereo not drawn) was inactive: -3.32%; that for `CP(=O)(Nc1ccc(Cl)cc1Cl)Oc1ccccc1` (stereo not drawn) was inactive: 0.935%. As to `CP(=O)(OCCOc1ccccc1)OCCOc1ccccc1`, the inhibition was inactive: 2.34%. The value for `Cc1nc2ccc3ccccc3c2o1.O=[N+]([O-])c1cc([N+](=O)[O-])c(O)c([N+](=O)[O-])c1` was inactive: 8.51%. As for `COc1ccc(OP(C)(=O)Nc2ccccn2)cc1` (stereo not drawn), the inhibition is inactive: 4.58%. As to `CN(C)CCOC(=O)C(O)(c1ccccc1)C1CCCC1` (stereo not drawn), the inhibition was inactive: -4.64%. Take `COc1ccccc1OP(C)(=O)Nc1ccc(Br)cc1` (stereo not drawn): the inhibition was inactive: -5.33%.

As for `CP(=O)(Nc1ccccn1)Oc1ccccc1` (stereo not drawn), the inhibition is inactive: 2.99%.

With `COc1ccccc1OP(C)(=O)Nc1ccc(C)cc1C` (stereo not drawn), the inhibition is inactive: 14.5%.

With `CCc1ccc(OP(C)(=O)O)cc1`, the inhibition was inactive: 1.12%. Turning to `Cc1c(NP(C)(=O)Oc2ccc(C(C)C)cc2)c(=O)n(-c2ccccc2)n1C` (stereo not drawn), the inhibition is inactive: 4.43%. On to `O=[N+]([O-])c1cc([N+](=O)[O-])c(Nc2ccccn2)c([N+](=O)[O-])c1`, for which the inhibition is inactive: 25.5%. For the compound `COc1ccccc1OP(C)(=O)Nc1c(C)n(C)n(-c2ccccc2)c1=O` (stereo not drawn), the inhibition was inactive: 8.14%. Take `O=C(OCCCN1CCCC1)C(O)(c1ccccc1)C1CCCCC1` (stereo not drawn): the inhibition was inactive: -1.51%.

Take `CP(=O)(Oc1ccccc1)N1CCOC1=O` (stereo not drawn): the inhibition was inactive: 2.78%.

Turning to `CCc1ccc(OP(C)(=O)Nc2cccnc2)cc1` (stereo not drawn), the inhibition is inactive: -6.89%. The value for `CCN(CC)CC(O)COC(=O)C(O)(c1ccccc1)C1CCCCC1` (stereo not drawn) was inactive: -1.38%; that for `COc1ccc(OP(C)(=O)Nc2ccc(Br)cc2)cc1` (stereo not drawn) was inactive: 2.58%.

Turning to `CN(C)C(=O)c1c([N+](=O)[O-])cc([N+](=O)[O-])cc1[N+](=O)[O-]`, the inhibition was inactive: 17.4%.

For `COc1ccccc1OP(C)(=O)Nc1ccccc1Br` (stereo not drawn), the inhibition is inactive: 3.51%. On to `CC(C)(C)c1ccc(OP(C)(=O)O)cc1`, for which the inhibition was inactive: -0.0661%.

In the case of `CP(=O)(Nc1ccc(Cl)cc1)Oc1ccc(F)cc1` (stereo not drawn), the inhibition is inactive: 2.22%. Under `CCOC(=O)c1ccc(NP(C)(=O)Oc2ccc(Cl)cc2)cc1` (stereo not drawn) stands inactive: 2.68%. Consider `CP(=O)(OC12CC3CC(CC(C3)C1)C2)OC12CC3CC(CC(C3)C1)C2`, for which the inhibition is inactive: 2.06%.

Turning to `Nc1ccc2c(ccc3cccnc32)n1.O=[N+]([O-])c1cc([N+](=O)[O-])c(O)c([N+](=O)[O-])c1`, the inhibition was inactive: 3.18%. On to `CN(C)CCOC(=O)C(O)(c1ccccc1)C1CCCCC1` (stereo not drawn), for which the inhibition was inactive: 4.97%. Take `COc1ccc(NP(C)(=O)Oc2ccccc2OC)cc1` (stereo not drawn): the inhibition was inactive: -4.17%. For `COc1ccc(OP(C)(=O)Nc2cccc(Br)c2)cc1` (stereo not drawn), the inhibition is inactive: 5.47%. Take `O=[N+]([O-])c1cc([N+](=O)[O-])c(NCC2CCS(=O)(=O)C2)c([N+](=O)[O-])c1` (stereo not drawn): the inhibition was inactive: -11.4%.

Turning to `CCOP(C)(=S)SCC(=O)NC(C)(CC)C(=O)O` (stereo not drawn), the inhibition was inactive: 1.16%. On to `CP(=O)(Nc1ccc(SC(F)(F)F)cc1)Oc1ccc(F)cc1` (stereo not drawn), for which the inhibition was inactive: 4.56%. For `Cc1ccccc1NP(C)(=O)Nc1ccccc1C`, the inhibition is inactive: -6.75%. With `CP(=O)(Nc1ccc2c(c1)OCCO2)Oc1ccccc1` (stereo not drawn), the inhibition was inactive: -2.49%.

Turning to `CP(=O)(Nc1ccccc1F)Oc1ccccc1` (stereo not drawn), the inhibition is inactive: 0%. Consider `CC(C)c1ccc(OP(C)(=O)Nc2ccc(SC(F)(F)F)cc2)cc1` (stereo not drawn), for which the inhibition was inactive: -6.35%. Turning to `COc1ccc2c(c1O)-c1c(O)c(OC)cc3c1[C@H](C2)[N+](C)(C)CC3.O=[N+]([O-])c1cc([N+](=O)[O-])c([O-])c([N+](=O)[O-])c1[O-]`, the inhibition was inactive: 2%. Take `O=C(OC1CN2CCC1CC2)c1ccc([N+](=O)[O-])cc1` (stereo not drawn): the inhibition was inactive: 16.7%. As to `O=C(OCCN1CCN(CCOCc2ccccc2)CC1)C(O)(c1ccccc1)c1ccccc1`, the inhibition was inactive: 3.02%. Regarding `CCOC(=O)c1ccc(NP(C)(=O)Oc2ccc(F)cc2)cc1` (stereo not drawn), the inhibition was inactive: 7.64%. With `COc1ccc(OP(C)(=O)Nc2ccc(SC(F)(F)F)cc2)cc1` (stereo not drawn), the inhibition is inactive: -1.72%. With `CP(=O)(Nc1ccccc1)Oc1ccc(F)cc1` (stereo not drawn), the inhibition was inactive: -12.5%. As for `O=[N+]([O-])c1cc([N+](=O)[O-])c(OC2CCCCC2O)c([N+](=O)[O-])c1` (stereo not drawn), the inhibition is inactive: -3.38%. The value for `CCCCCOc1ccc(NP(C)(=O)Oc2ccc(Cl)cc2Cl)cc1` (stereo not drawn) was inactive: -2.92%. For `CCN(CC)CCCOC(=O)C(O)(c1ccccc1)C1CCCCC1` (stereo not drawn), the inhibition is inactive: 4.05%. As for `O=C(O)c1cccc(Nc2c([N+](=O)[O-])cc([N+](=O)[O-])cc2[N+](=O)[O-])c1`, the inhibition was inactive: -3.24%. As for `CC1=NCCc2c1[nH]c1ccccc21.O=[N+]([O-])c1cc([N+](=O)[O-])c(O)c([N+](=O)[O-])c1`, the inhibition is inactive: -3.17%. The value for `CCOC(=O)c1ccc(NP(C)(=O)Oc2cc(C)cc(C)c2)cc1` (stereo not drawn) was inactive: 4.72%; that for `Cc1cc(C)cc(OP(C)(=O)Nc2ccc(C)cc2C)c1` (stereo not drawn) was inactive: 6.01%. Under `COc1ccccc1OP(C)(=O)Nc1cccc(Br)c1` (stereo not drawn) stands inactive: 2.76%; under `Cc1ccc(C)c(NP(C)(=O)Oc2ccccc2)c1` (stereo not drawn), inactive: 7.87%. Take `Cc1cc(C)cc(OP(C)(=O)Nc2ccccn2)c1` (stereo not drawn): the inhibition was inactive: 4.62%. Take `CP(=O)(Nc1cccc(Br)c1)Oc1ccccc1` (stereo not drawn): the inhibition is inactive: 3.13%. The value for `O=[N+]([O-])c1cc([N+](=O)[O-])c(-n2nnc3ccccc32)c([N+](=O)[O-])c1` was inactive: 1.39%; that for `Cc1nc2ccc3ccccc3c2s1.O=[N+]([O-])c1cc([N+](=O)[O-])c(O)c([N+](=O)[O-])c1` was inactive: -5.66%. The value for `O=[N+]([O-])c1cc([N+](=O)[O-])c(-c2cnn(-c3ccccc3)c2)c([N+](=O)[O-])c1` was inactive: 0.0804%; that for `CC1=C2N=C(C=C3N=C(C(C)=C4[N-][C@@](C)([C@@H]5N=C1[C@](C)(CCC(=O)NC[C@@H](C)OP(=O)([O-])O[C@H]1[C@@H](O)[C@@H](n6cnc7cc(C)c(C)cc76)O[C@@H]1CO)[C@H]5CC(N)=O)[C@@](C)(CC(N)=O)[C@@H]4CCC(N)=O)[C@@](C)(CC(N)=O)[C@@H]3CCC(N)=O)C(C)(C)[C@@H]2CCC(N)=O.[C-]#N.[Co+3]` was active: 67.8%.

(Values after PubChem BioAssay AID434973 (Sanford-Burnham Center for Chemical Genomics, 2010).)
